Results published in patent US10912774B2, “Pyrimidine FGFR4 inhibitors” (priority 2013, dated 2021).

Legend:
Parameters in all cases: species or system nude mice
[1] = tested on: HUH7 tumor xenografts; assay: In vivo efficacy, HUH7 hepatocellular carcinoma xenograft; conditions: among the three models
[2] = tested on: HEP3B tumor xenografts; assay: In vivo efficacy, HEP3B hepatocellular carcinoma xenograft; conditions: among the three models
[3] = tested on: JHH7 tumor xenografts; assay: In vivo efficacy, JHH7 hepatocellular carcinoma xenograft

Q: What does the source list for C=CC(=O)Nc1cc(N2CCN(CC)CC2)ccc1Nc1cc(N(C)C(=O)Nc2c(Cl)c(OC)cc(OC)c2Cl)ncn1 [Compound 108, N-(2-(6-(3-(2,6-Dichloro-3,5-dimethoxyphenyl)-1-methylureido)pyrimidin-4-ylamino)-5-(4-ethylpiperazin-1-yl)-phenyl)acrylamide]?
A: sensitivity of the tumor model to the compound [1]: intermediate sensitivity; sensitivity of the tumor model to the compound [2]: most sensitive; tumor response over all dose levels ([3]; JHH7 xenograft, 12.5, 25 and 37.5 mg/kg): Progressive Disease in all dose levels tested; sensitivity of the tumor model to the compound ([3]; JHH7 xenograft, among the three models): least sensitive
